# Results as given in US20130216547A1 (Regeneron, published 2013).
# T1: mouse big-ET-1 (mouse)
# T1 peptide: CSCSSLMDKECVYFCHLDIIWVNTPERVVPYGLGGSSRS
# T2: human big-endothelin-1 (big-ET-1) (human)
# T2 peptide: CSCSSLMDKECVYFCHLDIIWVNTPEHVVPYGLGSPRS
# B1: H4H6338P (antibody, V domains shown)
# VH: EVQLVESGGGLVQPGGSLRLSCAASGFAFSSYAMTWVRQTPGKGLEWVSSISGSGGSTYYADSVKGRFTISRDNSKNTLYLQMNSLRAEDTAVYYCAKARTGTHAFDIWGQGTMVTVSS
# VL: not shown
# notes: Human IgG4 Fc (prefix H4H)
# B2: H4H6343P (antibody, V domains shown)
# VH: EVQLLESGGGLVQPGGSLRLSCAASGFTFSSYAMSWVRQAPGKGLEWVSAISGSGVGTYYADSVKGRFTISRDNSKNTLYLQMNSLRAEDTAVYYCPKARTGTHAFDIWGQGTMVTVSS
# VL: not shown
# notes: Human IgG4 Fc (prefix H4H)
# How the values were obtained:
# mouse big-ET-1 [1] = molecular target: T1, mouse big-ET-1; test: cell-based or functional assay
# [2] = molecular target: T2, human big-endothelin-1 (big-ET-1); test: cell-based or functional assay
# mouse big-ET-1 [3] = molecular target: T1, mouse big-ET-1; test: SPR (Biacore T200), 37 C, mAb capture, peptide analyte
# Procedure: (§1) Measurements were conducted on a T200 Biacore instrument (Biacore Life Sciences division of GE Healthcare, Piscataway, N.J.). The Biacore sensor surface was derivatized with a rabbit anti-mouse for hybridoma capture (prefix H1M or H2M) or a mouse anti-human Fc surface for human IgG formatted antibodies (prefix H4H). […] Peptide binding was monitored for 3 min while dissociation of mAb-bound peptide was monitored for 4 min in HBST running buffer (0.01 M HEPES pH 7.4, 0.15 M NaCl, 3 mM EDTA, 0.005% v/v Surfactant P20). Kinetic association (kₐ) and dissociation (kd) rate constants were determined by processing and fitting the data to a 1:1 binding model using Scrubber 2.0 curve fitting software.
# [4] = molecular target: T2, human big-endothelin-1 (big-ET-1); test: as above
# Procedure: as §1
Binder,"Blocking IC50(M), 20 nM mBig-ET-1 + 5 nM mECE1; 293/ETaR/NFAT-Luc luciferase (mouse big-ET-1 [1]) [M]","Blocking IC50(M), 10 nM hBig-ET-1 + 3 nM hECE1; 293/ETaR/NFAT-Luc luciferase [2] [M]",Kd (mouse big-ET-1 [3]) [nM],Kd [4] [nM]
B1,8.9e-09,2.8e-08,4660,265
B2,8.2e-10,1.2e-09,25.2,11.2
